Data set [1] can be described thus: method code SF-TN, from DOI: 10.2116/analsci.13.897. As to conditions: pH 2.0.
Data set [2] in a line: method code SF-AS, from DOI: 10.1002/qsar.19830020405.
Experiment in data set [3]: not given
The source holds these as a separate data set.

Experiment in data set [4]: not given
This is another data set of the same source.

Data set [5] can be described thus: method code SF-HPLC, from DOI: 10.1248/bpb.16.154, PMID: 8364451.
Experiment in data set [6]: not given
This is another data set of the same source.

A short description of data set [7]: method code SF-HPLC, from DOI: 10.1021/jm00109a018, PMID: 2033591. As to conditions: pH 7.0.
Data set [8] in a line: method code SF-HPLC, from DOI: 10.1021/js970291i, PMID: 9523983. As to conditions: pH 7.4.
The nature of data set [9]: method code SF-AS, from DOI: 10.1248/cpb.17.2558. The note with it: pH 5.5.
A short description of data set [10]: method code SF-HPLC, from DOI: 10.1248/cpb.32.1929. The note with it: pH 7.2.
Data set [11] is described as follows: method code SF-AS, from DOI: 10.1139/y89-042, PMID: 2547502.
Experiment in data set [12]: not given
The source holds these as a separate data set.

Experiment in data set [13]: not given
The source holds these as a separate data set.

Data set [14] can be described thus: method code SF-TN, from DOI: 10.1007/bf00632830.
Data set [15] in a line: method code SF-RC, from DOI: 10.1182/blood.v76.11.2389.bloodjournal76112389, PMID: 2257308. The note with it: pH 7.4.
The conditions of data set [16]: pH 7.4.
Data set [17] can be described thus: method code SF-GLC,RC, from DOI: 10.1016/0048-3575(73)90050-3.
A short description of data set [18]: method code SF-GLC, from DOI: 10.1016/0378-4274(82)90116-3, PMID: 7090003.
Experiment in data set [19]: not given
This is another data set of the same source.

The conditions of data set [20]: pH 4.0.
Experiment in data set [21]: not given
This is another data set of the same source.

Experiment in data set [22]: not given
This is another data set of the same source.

The nature of data set [23]: method code SF-HPLC, from DOI: 10.1016/j.nucmedbio.2010.03.011, PMID: 20610161. The note with it: pH 7.4.
Experiment in data set [24]: not given
The source holds these as a separate data set.

Experiment in data set [25]: not given
This is another data set of the same source.

Experiment in data set [26]: not given
The source holds these as a separate data set.

Experiment in data set [27]: not given
The source holds these as a separate data set.

Experiment in data set [28]: not given
The source holds these as a separate data set.

Data set [29] in a line: method code SF-HPLC, from DOI: 10.1023/a:1015823315983, PMID: 1475237.
Experiment in data set [30]: not given
The source holds these as a separate data set.

Experiment in data set [31]: not given
This is another data set of the same source.

A short description of data set [32]: method code SF-RC, from DOI: 10.1023/a:1015913817221, PMID: 2798313. The note with it: pH 7.4.
The conditions of data set [33]: pH 5.6.
Experiment in data set [34]: not given
The source holds these as a separate data set.

Experiment in data set [35]: not given
This is another data set of the same source.

For data set [36] the following is noted: pH 7.3.

The text below walks through data of the SangsterLogP compilation.

As usually defined, the logD is lipophilicity at a set pH, counting ionised and neutral species. `C/C=C/C(=O)O` came in with a logD in data set [1] of 0.71.

By logP is commonly meant a log measure of how a compound divides between an organic and an aqueous phase. Lower therefore signals a more hydrophilic compound. Regarding `CC(C)(C)c1ccc(C(O)CCCN2CCC(C(O)(c3ccccc3)c3ccccc3)CC2)cc1` (configuration not stated), the logP stood at 5.42.

With `CCOc1ccc(NC(C)=O)cc1`, the logD in [2] (pH 7.4) came out at 1.65.

`O=C(CCCN1CC=C(n2c(=O)[nH]c3ccccc32)CC1)c1ccc(F)cc1` registered a log partition coefficient (logP) in data set [3] of 3.5.

For `COc1cc(Br)cc(C(=O)NC2CC3CCCC(C2)N3Cc2ccc(F)cc2)c1OC` (configuration not stated), the logP in data set [4] was found to be 3.59.

In turn, `CC(C)Cc1ccc(C(C)C(=O)O)cc1` (configuration not stated) yielded a logD in data set [2] (pH 4.5) of 3.28.

`CC(=O)Oc1ccccc1C(=O)O` registered a logP in data set [5] of 1.28.

Take `CC(C)N(CCC(C(N)=O)(c1ccccc1)c1ccccn1)C(C)C` (configuration not stated): the logP in data set [6] is 2.71.

`Nc1ncnc2c1ncn2[C@@H]1O[C@H](CO)C[C@H]1F` had a pH-dependent lipophilicity (logD) in data set [7] of -0.18.

In [8], `OCC1CCC(n2cnc3c(O)ncnc32)O1` (configuration not stated) came in with a logD of -0.54.

`CC(=O)/N=c1\sc(S(N)(=O)=O)nn1C` came in with a logD in [9] of 0.13.

In the case of `O=c1cc[nH]c(=O)[nH]1`, the logD in [10] was -1.

Regarding `CCCC(=O)Nc1ncnc2c1ncn2[C@@H]1O[C@@H]2COP(=O)(O)O[C@H]2[C@H]1OC(=O)CCC`, the logD in data set [11] was -1.75.

In turn, `Cc1cc2nc3c(=O)[nH]c(=O)nc-3n(C[C@H](O)[C@H](O)[C@H](O)CO)c2cc1C` gave a log distribution coefficient (logD) in data set [12] of -1.1.

Consider `OCCOCCN1CCN(C(c2ccccc2)c2ccc(Cl)cc2)CC1` (configuration not stated), for which, in data set [13], the logP was determined as 3.05.

`CCNCC` displayed a logP in [14] of 0.57.

In turn, `Cc1c(O)c(=O)ccn1C` showed a logD in data set [15] of -0.68.

As for `NS(=O)(=O)c1cc2c(s1)S(=O)(=O)CCC2=O`, the logD in [16] is -0.04.

The molecule `CCCCCCN` gave a lipophilicity (logP) in data set [17] of 1.98.

For the molecule `C=CC(=O)OCC(C)O` (configuration not stated), the logP in [18] was found to be 0.35.

Consider `Cc1nc(N)nc(N)c1-c1ccc(Cl)c(Cl)c1`, for which the logP in data set [19] stood at 2.8.

`CCCOC(=O)c1ccc(O)cc1` yielded a logD in data set [20] of 2.89.

In the case of `CS(C)=O`, the logP in data set [21] was -0.85.

For `CC1=C(CC(=O)O)c2cc(F)ccc2/C1=C\c1ccc(S(C)=O)cc1` (configuration not stated), the logP in data set [22] amounted to 3.29.

In data set [16], `NS(=O)(=O)c1cc2c(s1)C(O)CCS2` (configuration not stated) came in with a logD of 0.48.

Consider `O=[N+]([O-])c1nccn1CC(O)CF` (configuration not stated), for which the pH-dependent lipophilicity (logD) in data set [23] was -0.33.

For the molecule `CC(CCc1ccccc1)NCC(O)c1ccc(O)c(C(N)=O)c1` (configuration not stated), the log distribution coefficient (logD) in data set [24] was determined as 0.92.

Regarding `CCCCC(CC)C(=O)O` (configuration not stated), the logP in data set [25] was 2.64.

As for `O=[N+]([O-])c1ccc(CO)cc1`, in [26], the log partition coefficient (logP) amounted to 1.31.

Regarding `C=CCc1ccc(O)c(OC)c1`, in [27], the logP stood at 2.49.

`COc1ccc(-c2oc3c(CC=C(C)C)c(O[C@@H]4O[C@H](CO)[C@@H](O)[C@H](O)[C@H]4O)cc(O)c3c(=O)c2O[C@@H]2O[C@@H](C)[C@H](O)[C@@H](O)[C@H]2O[C@@H]2O[C@@H](C)[C@H](O)[C@@H](O)[C@H]2O)cc1` returned a logP in data set [28] of 0.24.

On to `Nc1ccn([C@H]2CC[C@@H](CO)O2)c(=O)n1`, for which the logD in data set [8] was -1.1.

For the molecule `COc1cc(Br)cc(C(=O)NC2CCN(Cc3ccc(F)cc3)CC2)c1OC`, the logP in data set [4] was found to be 3.82.

Molecule `O=C(O)[C@@H]1C[C@@H](C2CCCCC2)CN1C(=O)CP(=O)(O)CCCCc1ccccc1` came in with a pH-dependent lipophilicity (logD) in data set [29] of 3.65.

On to `NS(=O)(=O)c1cc2c(s1)C(=O)CCS2(=O)=O`, for which the logD in [16] is 0.2.

As to `COc1ccc([C@@H]2Sc3ccccc3N(CCN(C)C)C(=O)[C@@H]2OC(C)=O)cc1`, the logD in data set [30] was 2.1.

`CC(CN1c2ccccc2Sc2ccccc21)N(C)C` (configuration not stated) had a logP in data set [31] of 4.3.

In [32], `NC(=O)c1ncn([C@@H]2O[C@H](CO)[C@@H](O)[C@H]2O)n1` displayed a pH-dependent lipophilicity (logD) of -1.85.

With `O=Cc1ccc(O)cc1`, the logD in data set [33] worked out at 1.35.

In [34], `O=C1Nc2ccc(Cl)cc2C(c2ccccc2Cl)=NC1O` (configuration not stated) had a logP of 2.37.

Molecule `Oc1ccccc1Cl` came in with a logP in [35] of 2.29.

With `Cc1occc(=O)c1O`, in data set [36], the logD amounted to 0.09.
